Values of other authors in US11739132B2, “Separation moieties and methods of use thereof” (Werewolf Therapeutics, Inc., priority 2019, dated 2023).

Details: in vivo, cited from earlier work

Substance: Interleukin-2 [IL-2]
- Serum half-life (iv): ~0.167 h
- Half-life of metabolism by the kidneys: ~2.5 h
